Ab-95 light chain CDR variants: yeast mating affinities

Reference: Engelhart et al. 2022, doi:10.1038/s41597-022-01779-4. File: FLAb, binding data.

Binding partner: SARS-CoV-2 spike HR2 peptide, sequence PDVDLGDISGINAS.

Each scFv is VH, the linker GGGGSGGGGSGGGGS, VL, as in the parent Ab-95, and differs from it in the CDRs of the light chain only.
VH: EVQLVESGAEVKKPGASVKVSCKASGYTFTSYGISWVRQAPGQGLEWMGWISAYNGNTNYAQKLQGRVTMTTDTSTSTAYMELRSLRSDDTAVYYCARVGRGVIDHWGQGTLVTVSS
VL: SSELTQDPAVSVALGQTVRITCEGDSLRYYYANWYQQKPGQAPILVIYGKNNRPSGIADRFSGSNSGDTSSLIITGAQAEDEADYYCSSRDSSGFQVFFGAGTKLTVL

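Phage display of a naive human antibody library on the peptide gave the parent. Variants in AAYL52 differ from the parent at up to three CDR positions; double and triple changes were sampled at random. The assay is AlphaSeq: two haploid yeast populations carry antibody and antigen on their surface. Pairs that bind mate more often; barcode pairs of the diploids are counted by sequencing. Read counts were normalised to the haploid input and turned into Kd by a linear fit to BCL2-family pairs of known affinity, for each replicate. Each pool was mated in three replicate cultures.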

Variants are written as CDR1, CDR2 and CDR3 of the light chain (limits as in the source). Parent: EGDSLRYYYAN, GKNNRPS, SSRDSSGFQVF.
This list gathers variants with a substitution at P54 (VL, numbered from residue 1).
Scale: log10 of Kd in nM, estimated from mating counts; low values are strong binders.
"nd" marks a missing value. The strain was present, yet no cells mated with the target were sequenced in that replicate, which points to weak or no binding.
Parent in this assay: reference entry 2.31, copy in this library 2.25.

| CDR-L1 | CDR-L2 | CDR-L3 | log10 Kd (nM) by replicate |
|---|---|---|---|
| EGDSQRYYYAN | GKNNRIS | SSRDSSGPQVF | 3.18 / 2.84 / 4.06 |
| EGDSIRYYYAN | GKNNRKF | SSRDSSGFQVF | 4.80 / nd / nd |
| EGDSLRYYYAN | GKNNRVS | SSRDESRFQVF | 4.00 / 3.07 / 3.71 |
| EGDSLRYYYAN | GKGNRIE | SSRDSSGFQVF | 3.00 / 2.83 / 2.45 |
| EGDSLRYYYAN | GKNNRKS | SSRDPGGFQVF | 4.11 / nd / nd |
| EGDSLRDYYAN | GKNMRVS | SSRDSSGFQVF | 2.04 / 2.67 / 2.92 |
| EGDSLRYYYAN | GKNNRNS | VSRDSVGFQVF | 2.61 / 2.35 / 1.81 |
| EGDSLRYYYAN | GKNNRTS | TCRDSSGFQVF | nd / nd / nd |
| EGDSLRYYYAN | GKNNRDS | STRDSSGFQVS | 3.15 / nd / 2.91 |
| EGDSLRYYYAN | GKVNRQS | SSRDSSGFQVF | nd / nd / nd |
| EGDSLRYQYAN | GKNNRSS | SSRDSSGFQVW | 1.08 / 0.97 / 0.42 |
| EGDPLRYYYAN | GKNNRDS | SIRDSSGFQVF | nd / nd / nd |
| EGDSLRYYAAN | GKNNRRS | SSRDSSGMQVF | 2.56 / 2.65 / 1.98 |
| EGDSLRKYYAN | GKGNRQS | SSRDSSGFQVF | 2.56 / 2.70 / 1.85 |
| EGDSCRYYYAN | GKNNRDS | SSRDTSGFQVF | 3.37 / 5.41 / nd |
| EGKSLRYYYAN | GKNNERS | SSRDSSGFQVF | 3.19 / 3.82 / 3.89 |
| EGDSLRYDYAN | GKNNRAS | SSRDSSGFQVF | 1.74 / 1.81 / 1.54 |
| EGDSLRYYYAN | GGNNRGS | SSRDSKGFQVF | 4.64 / 2.56 / 1.89 |
| EGDVLRKYYAN | GKNNRRS | SSRDSSGFQVF | 3.62 / 2.92 / nd |
| EGDSLRYYYAN | GKNNRAS | SSRDSSGFQVF | 1.67 / 1.73 / 1.03 |
| EGDSLRYYYAN | GKNNRLT | SSRDSRGFQVF | 4.09 / 3.38 / 4.16 |
| EGDSLRYYYIN | GKNNRGS | SSRDSSGFQVF | 2.96 / 2.48 / 2.72 |
| EGDSLRYPYQN | GKNNRES | SSRDSSGFQVF | nd / 2.65 / nd |
| EGDSLRYYYAN | GKNRRVS | SSRDSSGFQMF | 4.05 / 2.95 / 3.80 |
| EGDSLRYYYAN | GKNNLRS | SSRDSSGFQVF | 3.15 / 3.34 / nd |
| EGDSLRYYYAN | GKNNRTL | SSRDSSGFQVF | 3.11 / 4.42 / 3.13 |
| EGDSLRMYYAN | GKNNRLS | SSKDSSGFQVF | nd / nd / nd |
| EYDSLRYYYAN | GKNNEAS | SSRDSSGFQVF | 5.18 / 4.40 / 4.50 |
| PGDSLRYYYAN | GKNNRTS | SSRDSSGSQVF | 4.14 / 4.15 / 4.13 |
| EGDSLRYYYAN | GKNNRYS | SSRDSSGFQVF | 3.06 / 3.53 / 2.65 |
| EGDSLRYYYAA | GKNNRKS | SSGDSSGFQVF | 3.68 / nd / 4.48 |
| EGDSLRYHYAN | GKNNRSS | SSRDSSGFQVF | 1.03 / 1.01 / 0.24 |
| EGDSLTYYYAN | GKNMRDS | SSRDSSGFQVF | 3.70 / 4.07 / 3.04 |
| EGDSLRYYQAN | GKNNRNS | SSRLSSGFQVF | nd / 3.55 / nd |
| EGDSLRYYYDN | GYNNRRS | SSRDSSGFQVF | nd / nd / nd |
| EGDSLRDYYAN | GKNNRKS | SSRDSSGFQVF | 2.46 / 2.51 / 1.82 |
| EGTDLRYYYAN | GKNNRDS | SSRDSSGFQVF | 3.05 / 3.44 / 3.20 |
| EGYSLRYYLAN | GKNNRCS | SSRDSSGFQVF | 3.48 / 3.21 / 4.37 |
| EGDSRRYTYAN | GKNNRES | SSRDSSGFQVF | 4.01 / 5.99 / nd |
| EGDSQRYYYAN | GKNNRHS | SSRDSSGFQVV | 4.26 / nd / nd |
| EGDSERYYYAN | GKNNRHS | SSLDSSGFQVF | nd / 2.95 / nd |
| EGDSLRYYYAE | GKNNRTS | SSRDSSGFPVF | 4.67 / nd / nd |
| EGDSLRYYDAN | GKNNRFS | SSRVSSGFQVF | 2.16 / 1.80 / 1.54 |
| EGDSLRYYYAN | GKNNRMS | SSRDSSPFQVF | nd / nd / nd |
| EGDVLRYYYAN | GKNNRQS | SERDSSGFQVF | nd / nd / 4.13 |
| EGDHLRYYYAN | GKNNRAS | SSRDSSGFFVF | 3.86 / nd / nd |
| EGDSLRCYYAN | GKNNRKS | VSRDSSGFQVF | 3.35 / 4.24 / nd |

5 of these entries, quoted again:

| CDR-L1 | CDR-L2 | CDR-L3 | log10 Kd (nM) by replicate |
|---|---|---|---|
| EGDSLRYDYAN | GKNNRAS | SSRDSSGFQVF | 1.74 / 1.81 / 1.54 |
| EGDSLRYYYAN | GKNNRYS | SSRDSSGFQVF | 3.06 / 3.53 / 2.65 |
| EGDSLTYYYAN | GKNMRDS | SSRDSSGFQVF | 3.70 / 4.07 / 3.04 |
| EGKSLRYYYAN | GKNNERS | SSRDSSGFQVF | 3.19 / 3.82 / 3.89 |
| EGDSLRYYYAN | GKNRRVS | SSRDSSGFQMF | 4.05 / 2.95 / 3.80 |

Empty control strains, which show no peptide, gave a signal in 28% of pairings with library AAYL52; the median was 3.91 and 95% of these signals were weaker than 2.90. No background was subtracted.